From US10174036B2, “Substituted pyrazoles as JAK inhibitors” (WUXI FORTUNE PHARMACEUTICAL CO., LTD, priority 2015, dated 2019)

Sequences of proteins named here, by UniProt entry; tags and fusion partners are left off.
UniProt P23458, whole entry: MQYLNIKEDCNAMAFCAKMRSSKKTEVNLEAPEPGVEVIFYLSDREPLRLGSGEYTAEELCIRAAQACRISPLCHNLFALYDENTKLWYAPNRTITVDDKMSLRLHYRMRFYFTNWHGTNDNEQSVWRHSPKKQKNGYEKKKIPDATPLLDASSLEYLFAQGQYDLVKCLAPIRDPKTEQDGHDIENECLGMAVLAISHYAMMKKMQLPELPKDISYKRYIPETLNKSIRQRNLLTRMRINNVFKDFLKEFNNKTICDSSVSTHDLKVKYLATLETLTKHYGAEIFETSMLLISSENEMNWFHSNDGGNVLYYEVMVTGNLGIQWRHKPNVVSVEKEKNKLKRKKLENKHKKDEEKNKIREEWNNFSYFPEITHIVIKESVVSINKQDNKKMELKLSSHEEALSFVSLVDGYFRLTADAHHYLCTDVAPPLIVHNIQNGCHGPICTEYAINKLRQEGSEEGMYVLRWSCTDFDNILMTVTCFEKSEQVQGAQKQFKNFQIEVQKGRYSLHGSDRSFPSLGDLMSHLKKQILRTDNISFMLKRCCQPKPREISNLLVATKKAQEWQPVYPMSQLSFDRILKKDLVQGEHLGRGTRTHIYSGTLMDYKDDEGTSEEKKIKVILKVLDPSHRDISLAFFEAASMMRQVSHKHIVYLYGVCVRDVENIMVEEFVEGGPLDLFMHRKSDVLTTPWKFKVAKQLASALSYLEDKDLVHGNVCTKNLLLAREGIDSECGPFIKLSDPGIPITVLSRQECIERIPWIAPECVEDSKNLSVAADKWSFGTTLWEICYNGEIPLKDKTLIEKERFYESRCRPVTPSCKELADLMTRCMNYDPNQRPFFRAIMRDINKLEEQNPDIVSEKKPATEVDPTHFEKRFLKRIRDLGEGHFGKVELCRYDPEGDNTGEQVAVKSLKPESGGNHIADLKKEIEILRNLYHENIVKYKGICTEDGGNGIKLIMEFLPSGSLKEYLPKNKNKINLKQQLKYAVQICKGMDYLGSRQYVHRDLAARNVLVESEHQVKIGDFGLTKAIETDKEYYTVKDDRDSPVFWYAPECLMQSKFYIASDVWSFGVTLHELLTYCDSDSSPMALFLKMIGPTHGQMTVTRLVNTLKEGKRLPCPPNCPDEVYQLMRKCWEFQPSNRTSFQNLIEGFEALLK
UniProt P52333, whole entry: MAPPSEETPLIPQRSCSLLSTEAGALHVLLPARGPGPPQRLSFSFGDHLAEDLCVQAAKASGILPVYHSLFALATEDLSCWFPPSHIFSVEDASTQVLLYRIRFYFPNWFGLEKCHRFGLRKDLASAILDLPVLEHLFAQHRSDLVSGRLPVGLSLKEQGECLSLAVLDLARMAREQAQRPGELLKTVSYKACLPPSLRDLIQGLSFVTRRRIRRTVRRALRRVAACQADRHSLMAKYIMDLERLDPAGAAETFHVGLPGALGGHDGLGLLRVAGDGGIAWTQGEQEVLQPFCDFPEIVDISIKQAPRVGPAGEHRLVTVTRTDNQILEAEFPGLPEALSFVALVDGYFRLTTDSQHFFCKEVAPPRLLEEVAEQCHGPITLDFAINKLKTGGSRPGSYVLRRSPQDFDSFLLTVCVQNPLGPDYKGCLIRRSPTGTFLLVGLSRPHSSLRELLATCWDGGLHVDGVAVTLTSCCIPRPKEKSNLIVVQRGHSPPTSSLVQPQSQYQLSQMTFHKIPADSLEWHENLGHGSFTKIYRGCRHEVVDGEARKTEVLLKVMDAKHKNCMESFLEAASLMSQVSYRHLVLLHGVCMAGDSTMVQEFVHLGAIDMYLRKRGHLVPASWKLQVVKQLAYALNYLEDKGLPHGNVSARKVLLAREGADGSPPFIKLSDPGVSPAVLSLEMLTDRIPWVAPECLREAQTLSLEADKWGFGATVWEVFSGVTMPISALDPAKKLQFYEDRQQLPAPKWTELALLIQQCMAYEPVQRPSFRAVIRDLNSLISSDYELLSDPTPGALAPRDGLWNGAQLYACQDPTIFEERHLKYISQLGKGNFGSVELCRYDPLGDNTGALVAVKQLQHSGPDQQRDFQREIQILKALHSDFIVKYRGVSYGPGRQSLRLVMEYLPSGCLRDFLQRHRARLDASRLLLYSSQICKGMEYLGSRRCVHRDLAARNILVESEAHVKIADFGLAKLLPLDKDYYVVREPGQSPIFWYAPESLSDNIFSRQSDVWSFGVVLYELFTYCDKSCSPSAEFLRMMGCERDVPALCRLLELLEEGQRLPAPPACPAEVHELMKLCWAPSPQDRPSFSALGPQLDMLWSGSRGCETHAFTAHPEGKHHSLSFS
UniProt O60674, whole entry: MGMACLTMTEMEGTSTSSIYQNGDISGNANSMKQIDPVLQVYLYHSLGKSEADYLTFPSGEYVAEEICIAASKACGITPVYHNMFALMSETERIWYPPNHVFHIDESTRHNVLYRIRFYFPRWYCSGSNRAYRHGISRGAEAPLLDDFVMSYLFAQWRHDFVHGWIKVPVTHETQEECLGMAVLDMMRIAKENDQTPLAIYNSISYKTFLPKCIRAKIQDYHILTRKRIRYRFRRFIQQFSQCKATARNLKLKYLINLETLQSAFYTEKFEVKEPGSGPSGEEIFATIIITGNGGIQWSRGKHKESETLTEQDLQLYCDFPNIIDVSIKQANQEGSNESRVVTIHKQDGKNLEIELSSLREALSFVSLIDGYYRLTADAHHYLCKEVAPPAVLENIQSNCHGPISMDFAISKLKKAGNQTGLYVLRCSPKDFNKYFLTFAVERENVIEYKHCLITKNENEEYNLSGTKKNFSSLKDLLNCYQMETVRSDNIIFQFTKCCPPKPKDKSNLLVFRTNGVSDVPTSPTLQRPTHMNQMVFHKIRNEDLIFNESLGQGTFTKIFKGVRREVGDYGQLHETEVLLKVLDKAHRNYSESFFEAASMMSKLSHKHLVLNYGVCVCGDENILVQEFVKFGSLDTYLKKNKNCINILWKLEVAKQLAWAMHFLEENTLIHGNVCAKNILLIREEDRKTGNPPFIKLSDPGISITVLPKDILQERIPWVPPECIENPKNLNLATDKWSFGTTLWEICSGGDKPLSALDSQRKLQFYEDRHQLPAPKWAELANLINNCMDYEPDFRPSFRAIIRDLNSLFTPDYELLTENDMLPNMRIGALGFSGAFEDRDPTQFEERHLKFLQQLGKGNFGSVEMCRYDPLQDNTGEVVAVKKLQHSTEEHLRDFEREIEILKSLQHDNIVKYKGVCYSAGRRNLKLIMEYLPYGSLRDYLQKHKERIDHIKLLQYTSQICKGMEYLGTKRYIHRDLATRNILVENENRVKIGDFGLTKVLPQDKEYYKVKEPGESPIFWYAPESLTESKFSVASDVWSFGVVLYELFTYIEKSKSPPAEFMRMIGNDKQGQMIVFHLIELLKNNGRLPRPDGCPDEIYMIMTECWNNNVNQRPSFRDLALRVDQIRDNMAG

Key:
JAK1 = JAK1 (Homo sapiens, UniProt P23458); assay: Test for in vitro activity of JAK1 kinase (LANCE Ultra ULight-JAK-1 peptide); format: biochemical; settings: selectivity ratio JAK1 versus JAK2; class symbol
JAK3 = JAK3 (Homo sapiens, UniProt P52333); assay: Test for in vitro activity of JAK3 kinase (LANCE Ultra ULight-JAK-1 peptide); settings: selectivity ratio JAK3 versus JAK2; class symbol
JAK2 = JAK2 (Homo sapiens, UniProt O60674); assay: Test for in vitro activity of JAK2 kinase (LANCE Ultra ULight-JAK-1 peptide); settings: read-out: JAK2; recombinant human JAK2, 12 uM ATP, 60 min; class symbol

## N#CCC1(n2cc(-c3cccn4nc(NC(=O)C5CC5)nc34)cn2)CN(S(=O)(=O)C2CC2)C1
JAK1
  JAK1/JAK2 (times): F1 (1 ≤ F1 ≤ 5)
JAK3
  JAK3/JAK2 (times): F4 (25 < F4 ≤ 100)
JAK2
  IC50: < 10 nM
